Reference: patent US8143424B2, “Thyroid like compounds” (Torrent Pharmaceuticals Ltd., priority 2007, dated 2012)

How the values were obtained:
THR α1 = target: T1, THR α1 (Homo sapiens, UniProt P10827); assay: Thyroid α1 transactivation (TRE reporter, luciferase) in COS7 cells; assay type: cell-based; conditions: Conc. 20 uM, 24 hours, vs vehicle control
T1 construct: GAL4 (plasmid pGAL4); expressed in transfected cells; host or cells: COS7
T1 sequence (P10827 1-410 isoform P10827-2): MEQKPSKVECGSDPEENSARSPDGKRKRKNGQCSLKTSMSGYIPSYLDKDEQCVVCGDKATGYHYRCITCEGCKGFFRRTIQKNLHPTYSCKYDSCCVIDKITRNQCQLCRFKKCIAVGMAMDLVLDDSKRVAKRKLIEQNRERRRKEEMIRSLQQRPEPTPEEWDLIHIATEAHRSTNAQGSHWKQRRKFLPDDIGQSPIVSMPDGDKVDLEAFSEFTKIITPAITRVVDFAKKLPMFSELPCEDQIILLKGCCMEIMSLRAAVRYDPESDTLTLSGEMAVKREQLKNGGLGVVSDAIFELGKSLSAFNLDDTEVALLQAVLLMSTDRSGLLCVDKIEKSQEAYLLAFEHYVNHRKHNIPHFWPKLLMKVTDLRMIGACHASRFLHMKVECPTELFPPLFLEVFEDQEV
Description: (§1) Compounds of the present invention were tested for their effect on O2 consumption (metabolic effect), LDL cholesterol, glucose levels, insulin levels and food consumption (appetite stimulant) and also to assess transcriptional activity of thyroid hormone receptor by in vitro TRE (Thyroid receptor element) reporter assay for TRα1 and TRβ1.
(§2) COS7 cells were transiently transfected with pGAL4 […]/Thyroid α1 or pGAL4/Thyroid β1 and pLuc Pur. The cells were cotransfected with pLacZNorm for normalization of transfection efficiency. Transfected cells were then treated with different concentrations of compounds of present invention, vehicle for 24 hours.
(§3) Cells were the lysed and luciferase activity was monitored in all samples. Results were expressed as fold activation as compared to vehicle control.
(§4) Results: Thyroid(α1/β1) transactivation in COS7 cells.

THR β1 = target: T2, THR β1 (Homo sapiens, UniProt P10828); assay: Thyroid β1 transactivation (TRE reporter, luciferase) in COS7 cells; assay type: cell-based; conditions: Conc. 20 uM, 24 hours, vs vehicle control
T2 construct: GAL4 (plasmid pGAL4); expressed in transfected cells; host or cells: COS7
T2 sequence (P10828 1-461): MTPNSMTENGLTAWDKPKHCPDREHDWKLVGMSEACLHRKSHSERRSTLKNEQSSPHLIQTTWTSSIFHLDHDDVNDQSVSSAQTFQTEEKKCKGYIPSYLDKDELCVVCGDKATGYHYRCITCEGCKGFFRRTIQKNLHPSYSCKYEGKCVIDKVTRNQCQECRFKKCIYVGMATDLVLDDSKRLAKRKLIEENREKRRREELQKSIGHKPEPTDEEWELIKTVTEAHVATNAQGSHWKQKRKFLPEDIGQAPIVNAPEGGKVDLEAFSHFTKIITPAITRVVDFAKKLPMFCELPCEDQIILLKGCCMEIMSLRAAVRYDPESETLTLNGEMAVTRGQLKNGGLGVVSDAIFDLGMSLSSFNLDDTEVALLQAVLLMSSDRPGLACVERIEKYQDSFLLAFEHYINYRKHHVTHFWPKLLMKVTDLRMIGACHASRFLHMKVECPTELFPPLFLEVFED
Description: as §1, §2, §3, §4

3-[4-(7-Hydroxy-indan-4-yloxy)-3-thiophen-2-yl-pyrazol-1-yl]-propionic acid And 3-[4-(7-Hydroxy-indan-4-yloxy)-5-thiophen-2-yl-pyrazol-1-yl]-propionic acid [Compound 7]
α1 Fold Activation (THR α1): 3 Fold
β1 Fold Activation (THR β1): 1 Fold
